This note sets out measurements from PubChem BioAssay (NCI).

The entries are a selection whose mix differs from that of the whole data set. More than one record can exist for a structure, and the calls need not agree. Calls of active or inactive are those of the source. Cut-off read from the data, not from the text of the source: active = growth inhibition above about 70%; inactive = the rest.

A short description of this assay: NCI Yeast Anticancer Drug Screen. Data for the CLN2oe strain (AID 163).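 Note: 0% = growth of vehicle-only control cultures.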 Conditions: S. cerevisiae CLN2oe strain, stronger effect = higher value. As to the method:
Growth inhibition of yeast strains with defined genetic alterations is measured as a screen for potential anti-cancer activity. Selected strains with alterations in DNA damage repair or cell cycle control were exposed to compounds and growth inhibition was measured relative to vehicle treated controls. The strain used in this assay is CLN2oe

Consider `FC1(F)SC2C(C1(F)F)C1(Cl)C(Cl)=C(Cl)C2(Cl)C1(Cl)Cl` (stereo not given), for which the growth inhibition runs as follows: (at 1.2 µM) inactive: 5%; (at 3.7 µM) inactive: 43%; (at 11.0 µM) active: 98%; (at 33.0 µM) active: 99%; (at 100.0 µM) active: 98%.
For the molecule `CC(C)c1nc(Nc2ccccc2)n(P(=O)(N(C)C)N(C)C)n1`, the growth inhibition was inactive: 8% (at 1.2 µM); inactive: 0% (at 3.7 µM); inactive: 14% (at 11.0 µM); inactive: 61% (at 33.0 µM); active: 95% (at 100.0 µM).
Regarding `COc1cccc(C[N+](C)(CCCl)CCCl)c1[N+](=O)[O-]`, the growth inhibition reads like this: (at 1.2 µM) inactive: 18%; (at 3.7 µM) inactive: 7%; (at 11.0 µM) inactive: 0%; (at 33.0 µM) inactive: 6%; (at 100.0 µM) inactive: 20%.
As for `O=[N+]([O-])c1cc([N+](=O)[O-])c2nsnc2c1`, the growth inhibition (at 1.2 µM) was inactive: -12%; the growth inhibition (at 3.7 µM) is inactive: 11%; the growth inhibition (at 11.0 µM) is active: 99%; the growth inhibition (at 33.0 µM) is active: 99%; the growth inhibition (at 100.0 µM) was active: 99%.
Regarding `O=C1OC(C(Cl)(Cl)Cl)Sc2ccccc21` (stereo not given), the growth inhibition (at 1.2 µM) is inactive: -4%; the growth inhibition (at 3.7 µM) is inactive: -3%; the growth inhibition (at 11.0 µM) is inactive: -12%; the growth inhibition (at 33.0 µM) is inactive: 2%; the growth inhibition (at 100.0 µM) was inactive: 21%.
Turning to `N#Cc1cc([N+](=O)[O-])cc([N+](=O)[O-])c1N`, the growth inhibition is, setting by setting: (at 1.2 µM) inactive: -13%; (at 3.7 µM) inactive: -10%; (at 11.0 µM) inactive: -2%; (at 33.0 µM) inactive: 14%; (at 100.0 µM) inactive: 29%.
The like results for `CN(C)P(=O)(N(C)C)n1c(Nc2ccccc2)nnc1-c1ccccc1` were, in that order, inactive: -19%, inactive: -12%, inactive: 36%, active: 97% and inactive: 29%.
On to `NC(Cc1cnc[nH]1)C(=O)O` (stereo not given), for which the growth inhibition (at 1.2 µM) is inactive: 3%; the growth inhibition (at 3.7 µM) was inactive: 9%; the growth inhibition (at 11.0 µM) is active: 96%; the growth inhibition (at 33.0 µM) is active: 98%; the growth inhibition (at 100.0 µM) is active: 99%.
